Assay results: patent US20180236024A1 (STC UNM, published 2018)
Each block holds one binder with its values, some of them ahead of it.

What was measured:
[1] = biological target: T1, GFP-TRIM20 (full-length human TRIM20) (human, UniProt O15553 1-781); assay: co-IP of GFP-TRIM20 with endogenous ATG16L1
T1 construct: also called T20; wild type TRIM20; not shown: GFP tag
T1 sequence: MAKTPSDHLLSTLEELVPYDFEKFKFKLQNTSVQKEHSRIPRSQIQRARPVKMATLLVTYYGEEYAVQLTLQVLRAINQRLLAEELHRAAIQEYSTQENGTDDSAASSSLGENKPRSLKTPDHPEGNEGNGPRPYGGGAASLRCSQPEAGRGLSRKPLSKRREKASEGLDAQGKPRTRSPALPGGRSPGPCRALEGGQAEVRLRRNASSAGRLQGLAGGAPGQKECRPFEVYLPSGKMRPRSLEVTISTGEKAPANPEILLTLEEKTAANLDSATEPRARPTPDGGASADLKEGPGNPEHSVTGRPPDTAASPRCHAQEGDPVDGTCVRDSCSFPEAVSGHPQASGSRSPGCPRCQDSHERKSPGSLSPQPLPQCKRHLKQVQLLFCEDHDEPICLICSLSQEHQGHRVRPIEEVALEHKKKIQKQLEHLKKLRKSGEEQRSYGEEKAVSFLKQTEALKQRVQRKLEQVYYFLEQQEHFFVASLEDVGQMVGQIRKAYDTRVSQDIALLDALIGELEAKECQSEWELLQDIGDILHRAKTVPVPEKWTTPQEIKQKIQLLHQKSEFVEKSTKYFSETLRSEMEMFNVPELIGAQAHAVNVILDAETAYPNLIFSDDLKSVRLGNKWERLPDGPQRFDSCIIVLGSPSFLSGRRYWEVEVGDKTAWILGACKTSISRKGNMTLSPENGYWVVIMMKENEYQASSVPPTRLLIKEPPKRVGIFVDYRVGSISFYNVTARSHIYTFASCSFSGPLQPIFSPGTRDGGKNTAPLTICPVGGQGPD

[2] = biological target: T1, GFP-TRIM20 (full-length human TRIM20); assay: co-IP of GFP-TRIM20 with Flag-TRIM21, HEK293 cell extracts

- binding result [1]: binds
B1: ATG16L1 (other, UniProt Q676U5 1-607, looked up)
chain: MSSGLRAADFPRWKRHISEQLRRRDRLQRQAFEEIILQYNKLLEKSDLHSVLAQKLQAEKHDVPNRHEISPGHDGTWNDNQLQEMAQLRIKHQEELTELHKKRGELAQLVIDLNNQMQRKDREMQMNEAKIAECLQTISDLETECLDLRTKLCDLERANQTLKDEYDALQITFTALEGKLRKTTEENQELVTRWMAEKAQEANRLNAENEKDSRRRQARLQKELAEAAKEPLPVEQDDDIEVIVDETSDHTEETSPVRAISRAATKRLSQPAGGLLDSITNIFGRRSVSSFPVPQDNVDTHPGSGKEVRVPATALCVFDAHDGEVNAVQFSPGSRLLATGGMDRRVKLWEVFGEKCEFKGSLSGSNAGITSIEFDSAGSYLLAASNDFASRIWTVDDYRLRHTLTGHSGKVLSAKFLLDNARIVSGSHDRTLKLWDLRSKVCIKTVFAGSSCNDIVCTEQCVMSGHFDKKIRFWDIRSESIVREMELLGKITALDLNPERTELLSCSRDDLLKVIDLRTNAIKQTFSAPGFKCGSDWTRVVFSPDGSYVAAGSAEGSLYIWSVLTGKVEKVLSKQHSSSINAVAWSPSGSHVVSVDKGCKAVLWAQY
notes: Flag-tagged overexpressed or endogenous, depending on the experiment; also called Flag-ATG16L1; endogenous ATG16L1

- binding result [2]: binds
B2: TRIM21 expressed in cells (other)
chain: MASAARLTMMWEEVTCPICLDPFVEPVSIECGHSFCQECISQVGKGGGSVCPVCRQRFLLKNLRPNRQLANMVNNLKEISQEAREGTQGERCAVHGERLHLFCEKDGKALCWVCAQSRKHRDHAMVPLEEAAQEYQEKLQVALGELRRKQELAEKLEVEIAIKRADWKKTVETQKSRIHAEFVQQKNFLVEEEQRQLQELEKDEREQLRILGEKEAKLAQQSQALQELISELDRRCHSSALELLQEVIIVLERSESWNLKDLDITSPELRSVCHVPGLKKMLRTCAVHITLDPDTANPWLILSEDRRQVRLGDTQQSIPGNEERFDSYPMVLGAQHFHSGKHYWEVDVTGKEAWDLGVCRDSVRRKGHFLLSSKSGFWTIWLWNKQKYEAGTYPQTPLHLQVPPCQVGIFLDYEAGMVSFYNITDHGSLIYSFSECAFTGPLRPFFSPGFNDGGKNTAPLTLCPLNIGSQGSTDY
notes: GFP-tagged in the co-IP with ULK1 and Beclin 1, Flag-tagged in the co-IP with GFP-TRIM20; The clone was bought from DNASU; also called GFP-TRIM21; T21
